Experimental data: ChEMBL document CHEMBL1145679, “Perhydrogenation of tabersonine, ans Aspidiosperma indole alkaloid” (J Nat Prod, 1997)

Amino acid sequences for entries named in this document (tags omitted). A change or cut given only in a name is not applied to a line headed by its entry.
UniProt P22086: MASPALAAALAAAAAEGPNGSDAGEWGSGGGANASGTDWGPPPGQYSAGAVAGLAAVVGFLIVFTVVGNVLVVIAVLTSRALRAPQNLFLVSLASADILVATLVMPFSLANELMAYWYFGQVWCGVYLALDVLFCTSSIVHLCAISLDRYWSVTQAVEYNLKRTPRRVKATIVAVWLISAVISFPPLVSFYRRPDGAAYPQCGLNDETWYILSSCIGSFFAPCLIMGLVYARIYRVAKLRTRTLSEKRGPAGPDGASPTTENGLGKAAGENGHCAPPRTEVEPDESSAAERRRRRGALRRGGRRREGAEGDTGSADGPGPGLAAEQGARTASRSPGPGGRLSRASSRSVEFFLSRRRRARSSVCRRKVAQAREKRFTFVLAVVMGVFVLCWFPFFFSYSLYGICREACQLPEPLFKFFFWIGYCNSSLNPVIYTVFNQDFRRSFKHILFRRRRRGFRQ
UniProt P19328: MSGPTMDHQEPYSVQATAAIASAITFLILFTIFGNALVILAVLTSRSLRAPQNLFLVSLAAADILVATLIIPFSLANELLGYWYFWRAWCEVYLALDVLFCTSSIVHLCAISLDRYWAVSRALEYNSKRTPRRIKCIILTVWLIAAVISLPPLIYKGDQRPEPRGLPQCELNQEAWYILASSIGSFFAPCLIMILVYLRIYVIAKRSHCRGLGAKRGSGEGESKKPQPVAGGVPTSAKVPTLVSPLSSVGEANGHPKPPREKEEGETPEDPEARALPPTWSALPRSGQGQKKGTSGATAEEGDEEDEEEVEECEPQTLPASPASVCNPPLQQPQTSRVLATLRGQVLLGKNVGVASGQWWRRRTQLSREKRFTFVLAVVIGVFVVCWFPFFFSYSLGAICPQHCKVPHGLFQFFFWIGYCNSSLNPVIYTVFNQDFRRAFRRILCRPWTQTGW
UniProt P22909: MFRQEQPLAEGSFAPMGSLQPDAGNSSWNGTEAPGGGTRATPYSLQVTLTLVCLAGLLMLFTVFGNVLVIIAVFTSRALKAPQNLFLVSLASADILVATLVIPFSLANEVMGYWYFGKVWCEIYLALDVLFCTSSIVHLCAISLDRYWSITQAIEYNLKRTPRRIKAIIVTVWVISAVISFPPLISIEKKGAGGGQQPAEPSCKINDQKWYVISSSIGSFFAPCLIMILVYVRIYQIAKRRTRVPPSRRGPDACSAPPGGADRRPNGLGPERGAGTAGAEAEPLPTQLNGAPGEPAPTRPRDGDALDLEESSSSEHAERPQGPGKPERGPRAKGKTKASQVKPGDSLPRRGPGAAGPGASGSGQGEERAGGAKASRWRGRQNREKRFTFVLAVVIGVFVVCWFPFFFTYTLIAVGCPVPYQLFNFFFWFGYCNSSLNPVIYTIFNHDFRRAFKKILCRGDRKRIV

Molecular target: Adrenergic receptor alpha-2 (Rattus norvegicus, UniProt P22086+P19328+P22909)
Assay: Displacement of radioligand from rat alpha2 adrenergic receptor by liquid scintillation spectrometry

Q: For CNC[C@H](O)c1ccc(O)c(O)c1 [EPINEPHRINE], which Ki is on record?
A: 160 nM
